Results from ChEMBL document CHEMBL6127153, “Hybrids of Membrane-Translocating Antimicrobial Peptides Show Enhanced Activity through Membrane Permeabilization” (ACS Med Chem Lett, 2024).
Activity calls are given as the source filed them. The rule behind the calls is not given here.

Columns and labels:
[1] = tested on: Escherichia coli; experiment: Antibacterial activity against Escherichia coli Top10 assessed as inhibition of bacterial growth at 100 uM incubated for 3 hrs by radial diffusion assay; format: functional, organism-based
[2] = tested on: Bacillus subtilis; experiment: Antibacterial activity against Bacillus subtilis ATCC6051 assessed as inhibition of bacterial growth at 100 uM incubated for 3 hrs by radial diffusion assay; format: functional, organism-based
[3] = tested on: Bacillus subtilis; experiment: Antibacterial activity against Bacillus subtilis ATCC6051 assessed as inhibition of bacterial growth incubated for 1 hr followed by TSB addition and measured after 18 to 24 hrs by microbroth dilution assay; format: functional; details: time 19-25 hrs
[4] = tested on: HEK293; experiment: Cytotoxicity against HEK293 cells assessed as effect on cell metabolic activity at 18.2 uM incubated for overnight by MTS assay; format: toxicity, cell-based; details: human, hek293, 18.2 µM
[5] = tested on: Cell membrane; experiment: Induction of membrane translocation in Escherichia coli spheroplasts assessed as increase in fluorescence intensity using FITC-labeled compound by confocal microscopy; format: subcellular
[6] = tested on: Cell membrane; experiment: Induction of membrane permeabilization in Escherichia coli assessed as increase in fluorescence intensity at 2 uM by PI staining based fluorescence spectrophotometric analysis; format: subcellular

MIC [3]: > 18.2 µM
Activity [5]: Active
Activity [6]: Active
Compound: CC[C@H](C)[C@H](NC(=O)[C@H](CCCNC(=N)N)NC(=O)[C@@H](NC(=O)[C@H](CCCCN)NC(=O)[C@H](CCCCN)NC(=O)[C@H](CC(N)=O)NC(=O)[C@H](CC(=O)O)NC(=O)[C@H](CCCNC(=N)N)NC(=O)[C@H](C)N)[C@@H](C)O)C(=O)N[C@@H](Cc1c[nH]c2ccccc12)C(=O)N1CCC[C@H]1C(=O)N[C@@H](CCCNC(=N)N)C(=O)N[C@@H](Cc1cnc[nH]1)C(=O)N[C@@H](CC(C)C)C(=O)N[C@@H](CCC(N)=O)C(=O)N[C@@H](CC(C)C)C(=O)N[C@@H](C)C(=O)N[C@H](C(=O)N[C@@H](CCCNC(=N)N)C(=O)N[C@@H](CC(N)=O)C(=O)O)C(C)C
Activity [1]: Active
Activity [2]: Active
Activity [4]: Non-Toxic
